Assay results: PubChem BioAssay AID651699 (Sanford-Burnham Center for Chemical Genomics, 2012)
Only a part is listed here, and it is no random draw. Calls of active or inactive are those of the source. Cut-off read from the data, not from the text of the source: active = inhibition above about 36%; inactive = the rest.

Sequences of proteins named here, by UniProt entry; tags and fusion partners are left off.
UniProt P61081, whole entry, looked up: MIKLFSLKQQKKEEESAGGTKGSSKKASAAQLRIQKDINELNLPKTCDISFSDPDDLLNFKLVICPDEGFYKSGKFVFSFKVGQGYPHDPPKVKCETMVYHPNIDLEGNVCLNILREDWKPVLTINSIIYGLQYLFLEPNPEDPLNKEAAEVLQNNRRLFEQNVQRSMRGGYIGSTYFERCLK
UniProt Q13564, whole entry, looked up: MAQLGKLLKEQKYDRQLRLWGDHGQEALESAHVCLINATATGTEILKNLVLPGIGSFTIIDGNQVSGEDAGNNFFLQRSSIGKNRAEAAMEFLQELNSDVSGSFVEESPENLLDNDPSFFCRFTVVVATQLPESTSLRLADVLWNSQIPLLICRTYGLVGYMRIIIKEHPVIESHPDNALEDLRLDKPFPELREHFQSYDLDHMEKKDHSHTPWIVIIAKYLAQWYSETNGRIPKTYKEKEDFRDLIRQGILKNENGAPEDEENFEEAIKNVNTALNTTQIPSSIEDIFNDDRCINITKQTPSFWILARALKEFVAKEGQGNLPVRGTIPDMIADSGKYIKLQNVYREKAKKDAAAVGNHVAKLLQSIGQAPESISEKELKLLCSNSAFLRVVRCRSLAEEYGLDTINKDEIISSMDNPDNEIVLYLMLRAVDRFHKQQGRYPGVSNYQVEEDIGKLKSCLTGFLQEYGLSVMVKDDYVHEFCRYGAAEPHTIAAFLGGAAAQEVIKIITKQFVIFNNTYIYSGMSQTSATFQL

Each molecule was assayed against NEDD8-conjugating enzyme Ubc12 (Homo sapiens) + NEDD8-activating enzyme E1 regulatory subunit (Homo sapiens) (UniProt P61081+Q13564) (assay: NEDD8 transfer onto cullin, blockade – biochemical, TR-FRET, uHTS, NAE and Ubc12, primary screen (AID 651699)). Conditions: TR-FRET cullin neddylation, at 25 µM, stronger effect = higher value.
In the case of `CCC(=O)N(c1ccccc1)C1(COC)CCN(CCn2nnn(CC)c2=O)CC1`, the inhibition is reported as inactive: -10.2%. For `CCC(=O)N(c1ccccc1)C1(COC)CCN(CCc2cccs2)CC1`, the inhibition was inactive: -7.2%.
